Measured values from ChEMBL document CHEMBL1134342, “Current and novel approaches to the drug treatment of schizophrenia” (J Med Chem, 2001).
Activity calls are given as the source filed them. The rule behind the calls is not given here.

Experiments:
[1] = system: Rodentia sp.; test: animal or person; settings: read-out: MED
[2] = system: Rodentia sp.; test: animal or person
[3] = system: Rodentia sp.; test: animal or person; settings: read-out: MED; remark: listed apart in the source
[4] = system: Rodentia sp.
[5] = system: Rodentia sp.; remark: listed apart in the source
[6] = system: Rodentia sp.; remark: listed apart in the source
[7] = system: Rodentia sp.; test: animal or person; settings: read-out: MED; remark: listed apart in the source
[8] = system: Rodentia sp.; remark: listed apart in the source

Question: Which results are given for Clc1ccc(N2CCN(Cc3c[nH]c4ncccc34)CC2)cc1 [L-745870]?
Answer: minimal effective dose [1]: 100 mg/kg; ED50 [2]: 22 mg/kg; minimal effective dose [3]: 100 mg/kg; NE [4]: inactive; NE [5]: inactive; NE [6]: inactive; minimal effective dose [7]: 30 mg/kg; NE [8]: inactive
